Reference: BindingDB's records for patent US10040791 (Daiichi Sankyo Company, Limited, 2018)

Protein sequences, listed by entry. Tags and fused reporters are not part of them. Residues count along the entry.
UniProt O75874, 2-414 R132H limits assumed: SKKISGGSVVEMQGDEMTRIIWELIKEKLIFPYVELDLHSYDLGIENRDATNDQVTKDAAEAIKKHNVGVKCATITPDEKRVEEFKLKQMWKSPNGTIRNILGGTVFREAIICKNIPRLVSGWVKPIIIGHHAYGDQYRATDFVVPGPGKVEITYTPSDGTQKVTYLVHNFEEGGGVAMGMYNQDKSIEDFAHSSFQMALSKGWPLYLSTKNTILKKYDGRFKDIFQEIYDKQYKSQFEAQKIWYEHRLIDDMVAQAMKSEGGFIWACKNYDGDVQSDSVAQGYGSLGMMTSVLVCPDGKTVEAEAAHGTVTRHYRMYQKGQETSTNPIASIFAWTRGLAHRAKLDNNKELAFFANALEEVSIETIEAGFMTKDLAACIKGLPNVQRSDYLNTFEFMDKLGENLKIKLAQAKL

Target: Isocitrate dehydrogenase [NADP] cytoplasmic [R132H] (Homo sapiens, UniProt O75874, R132H)
Assay: Inhibitory Activity Against IDH1R132H and IDH1R132C Enzymes
Conditions: pH 7.5; 25 °C

SMILES	IC50
Cc1cn(C(=O)c2c(-c3c(Cl)cc(Cl)cc3Cl)noc2C(F)(F)F)c2cccc(/C=C/C(=O)O)c12 [US10040791, Example 61]	36 nM
Cc1cn(C(=O)c2c(-c3c(Cl)cc(Cl)cc3Cl)noc2C2(C#N)CCC2)c2cccc(/C=C/C(=O)O)c12 [US10040791, Example 93]	12 nM
CC(C)(F)c1onc(-c2c(Cl)cc(Cl)cc2Cl)c1C(=O)n1cc(C2CC2)c2c(/C=C/C(=O)O)cccc21 [US10040791, Example 71]	81 nM
Cc1cn(C(=O)c2c(-c3ccc(Cl)cc3Cl)noc2C2(C)COC2)c2cccc(/C=C/C(=O)O)c12 [US10040791, Example 78]	33 nM
Cn1cc(C(=O)c2c(-c3c(Cl)cc(Cl)cc3Cl)noc2C(C)(C)C)c2cccc(/C=C/C(=O)O)c21 [US10040791, Example 164]	11 nM
NC[C@H]1CCN(c2onc(-c3c(Cl)cccc3Cl)c2C(=O)n2ccc3c(/C=C/C(=O)O)cccc32)C1 [US10040791, Example 139]	183 nM
CCC1(c2onc(-c3c(Cl)cccc3Cl)c2C(=O)n2ccc3c(/C=C/C(=O)O)cccc32)COC1 [US10040791, Example 5]	11 nM
